Tested on: hamster flank organ
Assay: Flank organ, castrated immature male hamsters, topical treatment
Assay type: in vivo, Syrian golden hamster
Conditions: 24 days
Experimental: One to two weeks after castration, the hair on the lower back of each animal was clipped with an electric hair clipper and then shaved weekly to expose the flank organs. The animals were divided into 5 animals/treatment group. A treatment solution (5 μl) was applied topically to the right flank organ once a day using a Pipetteman and a polypropylene disposable tip. Unless specified the left flank organ was not treated. The treatment solution contained either (a) ethanol alone (vehicle and control), (b) an androgen (T or 5α-DHT), (c) a fatty acid, or (d) a combination of an androgen and a fatty acid. The flank organ was wiped with an alcohol pad to remove residual compound before each treatment. […] The flank organs, both the treated and untreated sides, were evaluated with methods to be described below to determine the effect of these treatments of the growth of the pigmented macules and the sebaceous glands. The body weight of each animal was recorded before and after treatment.
The data are presented as mean ± standard deviation. […]

C[C@]12CC[C@H]3[C@@H](CCC4=CC(=O)CC[C@@]43C)[C@@H]1CC[C@@H]2O [T, Testosterone, reference compound]
index of the area of the pigmented macule (0.5 μg/flank organ/day, control 2.4±1.4): 45.6±8.0 mm^2 | index of the area of the pigmented macule (2 μg/flank organ/day): 69.4±13.7 mm^2 | index of the area of the pigmented macule (5 μg/flank organ/day): 66.4±4.2 mm^2

— patent US5605929A, “Methods and compositions for inhibiting 5α-reductase activity” (priority 1995, dated 1997)
